# Only a part is listed here, and it is no random draw. Active and inactive are the calls of the source.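 Rule for the calls: active = maximum activity change below -70%; inconclusive = maximum activity change between -70% and -50%; inactive = maximum activity change above -50%.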
# By UniProt entry, the sequences of proteins in these tests, tags left out. Where a name states a change or a piece, a line headed by the entry shows the natural chain unless it says otherwise.
# UniProt Q12809: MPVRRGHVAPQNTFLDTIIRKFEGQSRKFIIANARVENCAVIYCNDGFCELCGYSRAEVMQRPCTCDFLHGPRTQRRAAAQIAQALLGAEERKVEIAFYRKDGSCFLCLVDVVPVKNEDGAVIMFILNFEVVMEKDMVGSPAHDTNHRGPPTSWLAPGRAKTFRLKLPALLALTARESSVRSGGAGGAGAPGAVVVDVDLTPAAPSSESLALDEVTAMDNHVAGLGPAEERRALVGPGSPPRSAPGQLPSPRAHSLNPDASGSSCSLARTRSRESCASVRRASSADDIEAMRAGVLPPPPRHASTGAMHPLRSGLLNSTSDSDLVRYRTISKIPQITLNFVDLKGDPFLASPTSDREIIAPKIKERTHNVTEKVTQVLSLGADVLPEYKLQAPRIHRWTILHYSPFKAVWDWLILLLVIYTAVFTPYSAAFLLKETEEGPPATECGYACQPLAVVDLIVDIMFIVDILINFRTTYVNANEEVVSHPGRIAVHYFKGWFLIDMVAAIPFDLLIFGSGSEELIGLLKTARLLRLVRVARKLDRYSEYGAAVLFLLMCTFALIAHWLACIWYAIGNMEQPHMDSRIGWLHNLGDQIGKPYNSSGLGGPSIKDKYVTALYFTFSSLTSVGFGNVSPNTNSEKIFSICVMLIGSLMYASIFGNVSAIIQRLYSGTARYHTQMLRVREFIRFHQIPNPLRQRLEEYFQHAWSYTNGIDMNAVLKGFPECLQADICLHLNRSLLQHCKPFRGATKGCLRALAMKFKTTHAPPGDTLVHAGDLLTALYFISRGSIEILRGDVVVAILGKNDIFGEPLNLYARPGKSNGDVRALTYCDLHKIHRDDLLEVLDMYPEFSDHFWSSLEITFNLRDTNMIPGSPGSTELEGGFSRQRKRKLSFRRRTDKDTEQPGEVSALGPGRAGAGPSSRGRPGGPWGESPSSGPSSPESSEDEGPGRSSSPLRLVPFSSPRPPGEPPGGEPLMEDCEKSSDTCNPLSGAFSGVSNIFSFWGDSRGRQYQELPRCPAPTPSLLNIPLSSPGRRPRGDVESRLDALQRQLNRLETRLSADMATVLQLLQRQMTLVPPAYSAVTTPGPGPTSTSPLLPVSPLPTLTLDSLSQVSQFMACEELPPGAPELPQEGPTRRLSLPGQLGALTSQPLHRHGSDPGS
# Molecular target: Voltage-gated inwardly rectifying potassium channel KCNH2 (Homo sapiens) (UniProt Q12809)
# Assay: qHTS for Inhibitors of KCHN2 3.1: Wildtype qHTS
# Settings: U2OS, BacMam KCNH2, thallium flux FluxOr; at 1.84 µM; active compounds read low
# Text: Many antipsychotic drugs that inhibit the neurotransmitter dopamine also bind to hERG1 channel which might help explain their antipsychotic activity but also produces cardiac side effects. The discovery of the novel KCNH2 3.1 isoform offers a potential new target for the development of antipsychotic drugs without cardiac side effects. This proposal will use a high throughput thallium flux assay developed for KCNH2 to screen compounds that modulate the activity of KCNH2 3.1. The wild type KCNH2 channel will also be screened in parallel to help define the selective modulators of this KCNH2 3.1 potassium channel. The resulting compounds will be validated in electrophysiology experiments. The availability of animal models will allow future testing in vivo for effects on memory and other aspects of animal physiology linked with psychosis. NIH Chemical Genomics Center [NCGC] NIH Molecular Libraries Probe Centers Network [MLPCN] MLPCN Grant: MH096539 Assay Submitter (PI): James Barrow, Johns Hopkins University, Lieber Institute for Brain Development
# U2OS cells were resuspended in cell media containing 10% fetal calf serum (FCS) at a concentration of 2 million cells / mL. The solution was treated with the Wild-type virus at 2.03 x 10^8 / mL and allowed to incubate at room temperature in the dark. After 4 hours of incubation, DMEM + 10% fetal bovine serum (FBS) was added to the cell solution. Three microliter was then dispensed into a 1536 tissue culture treated black assay plates which were incubated overnight at 37 C. Two microliter of loading buffer (HBSS + HEPES + Red40 dye quencher + FluxOr dye) was added and the assay plates were incubated for 45 min at room temperature in the dark. Twenty-three nanoliter of test compounds and positive control Haloperidol (46 uM final concentration) were added to the assay plate followed by a kinetic read (180 sec) using the Hamamatsu FDSS reader. A stimulation buffer was added to the plate and the second kinetic read (2 min) was obtained. The rate constant was calculated from the kinetic reads and normalized to the positive and negative DMSO controls.
# % is set by controls: 0 for no effect and ±100 for the full control effect.
row,SMILES,activity change
1,CCOC(=O)C1=C[C@]2(CC)CCCN3CCc4c(n1c1ccccc41)[C@@H]32,active: -93.6%
2,CC(C)COCC(CN(Cc1ccccc1)c1ccccc1)N1CCCC1 (configuration not stated),active: -79.6%
3,CN1CCC[C@@H]1CCO[C@](C)(c1ccccc1)c1ccc(Cl)cc1,active: -125%
4,O=C(CCCN1CCC(O)(c2cccc(C(F)(F)F)c2)CC1)c1ccc(F)cc1,active: -122%
5,O=C(CCCN1CCC(O)(c2ccc(Cl)cc2)CC1)c1ccc(F)cc1,active: -111%
6,CCNC(=O)N1CCN(CCCC(c2ccc(F)cc2)c2ccc(F)cc2)CC1,active: -137%
7,CN1CCCC1CCOC(C)(c1ccccc1)c1ccc(Cl)cc1 (configuration not stated),active: -143%

# Source: PubChem BioAssay AID720551 (National Center for Advancing Translational Sciences (NCATS), 2013)
